{"source": "ChEMBL document CHEMBL4420080", "about": "“Inhibitors of sox18 protein activity for treating angiogenesis- and/or lymphangiogenesis-related diseases” (2018)", "key": {"[1]": {"target": "T1, Transcription factor SOX-18 (Homo sapiens) (UniProt P35713)", "T1 sequence (whole entry)": "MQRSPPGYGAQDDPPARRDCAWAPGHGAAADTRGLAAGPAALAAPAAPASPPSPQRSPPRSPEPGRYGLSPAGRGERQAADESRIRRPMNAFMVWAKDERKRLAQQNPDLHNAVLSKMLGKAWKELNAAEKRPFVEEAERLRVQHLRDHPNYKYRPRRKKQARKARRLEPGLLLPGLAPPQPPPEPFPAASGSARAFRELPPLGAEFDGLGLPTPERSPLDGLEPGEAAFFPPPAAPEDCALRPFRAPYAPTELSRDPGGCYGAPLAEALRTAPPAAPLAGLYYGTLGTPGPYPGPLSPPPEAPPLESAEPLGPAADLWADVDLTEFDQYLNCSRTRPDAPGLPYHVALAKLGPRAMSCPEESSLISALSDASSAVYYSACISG", "assay": "Inhibition of SOX18 in HUVEC assessed as reduction of SOX18-OCT4 interactions incubated for 45 mins by Alpha-screen assay"}, "[2]": {"target": "T1, Transcription factor SOX-18 (Homo sapiens)", "assay": "Inhibition of SOX18 in HUVEC assessed as reduction of SOX18 transcriptional activity by genome-wide RNA-seq and ChlP-seq analysis"}}, "note": "The source made the active and inactive calls. No cut-off for these calls is given here."}
{"compound": "O=C(O)c1c(O)cccc1CCc1ccc2ccccc2c1", "values": [{"measurement": "inhibition", "setting": "[1]", "result": "Active"}, {"measurement": "inhibition", "setting": "[2]", "result": "Active"}]}
